Data set [1] can be described thus: Solubility assessment (UHPLC-UV of supernatant, target 10 mg/ml). The following applies: Solubility buffer system A: 100 mM phosphate buffer pH 7.4; read-out: Soluble amount. Type of data set: physicochemical. As to the method:
Prior to the solubility measurement of a peptide batch, its purity was determined through UHPLC/MS.
Therefore, solutions from solid samples were prepared in a buffer system with a concentration of 10 mg/ml compound based on the previously determined % purity: • Solubility buffer system A) 100 mM phosphate buffer pH 7.4 • Solubility buffer system B) 8 mM phosphate buffer pH 7.4, 14 mg/ml propylene glycol, 5.5 mg/ml phenol • Solubility buffer system C) 100 mM phosphate buffer pH 7.4, 2.7 mg/ml m-cresol
UHPLC-UV was performed after 1 h of gentle agitation and storage at 5° C. overnight (24 h) from the supernatant, which was obtained after 15 min of centrifugation at 2500 RCF (relative centrifugal acceleration).
The different UV extinction coefficients of sample and reference peptide were calculated based on the different amino acid sequences and considered in the concentration calculation.
The analytical method used was Analytical UHPLC Method A.
Peptide samples were prepared in solubility buffer system A or C and solubility was assessed as described in Methods.

Amino acid sequences for entries named in this document (tags omitted). Residues count along the entry.
UniProt P43220, 24-463: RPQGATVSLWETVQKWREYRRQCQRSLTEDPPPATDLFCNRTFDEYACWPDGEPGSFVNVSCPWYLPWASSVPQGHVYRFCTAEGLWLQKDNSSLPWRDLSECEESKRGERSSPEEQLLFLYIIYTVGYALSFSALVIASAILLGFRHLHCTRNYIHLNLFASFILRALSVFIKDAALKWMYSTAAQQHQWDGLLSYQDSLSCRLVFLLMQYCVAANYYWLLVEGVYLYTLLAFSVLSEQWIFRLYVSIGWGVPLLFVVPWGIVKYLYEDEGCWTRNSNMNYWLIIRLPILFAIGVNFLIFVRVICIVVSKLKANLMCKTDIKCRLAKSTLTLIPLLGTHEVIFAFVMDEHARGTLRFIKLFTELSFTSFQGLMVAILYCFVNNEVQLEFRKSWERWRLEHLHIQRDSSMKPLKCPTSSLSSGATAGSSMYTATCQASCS

The target of data set [2] is T1, human GIP receptor (hGIPR) (Homo sapiens, UniProt P48546).
T1 sequence (P48546 22-466): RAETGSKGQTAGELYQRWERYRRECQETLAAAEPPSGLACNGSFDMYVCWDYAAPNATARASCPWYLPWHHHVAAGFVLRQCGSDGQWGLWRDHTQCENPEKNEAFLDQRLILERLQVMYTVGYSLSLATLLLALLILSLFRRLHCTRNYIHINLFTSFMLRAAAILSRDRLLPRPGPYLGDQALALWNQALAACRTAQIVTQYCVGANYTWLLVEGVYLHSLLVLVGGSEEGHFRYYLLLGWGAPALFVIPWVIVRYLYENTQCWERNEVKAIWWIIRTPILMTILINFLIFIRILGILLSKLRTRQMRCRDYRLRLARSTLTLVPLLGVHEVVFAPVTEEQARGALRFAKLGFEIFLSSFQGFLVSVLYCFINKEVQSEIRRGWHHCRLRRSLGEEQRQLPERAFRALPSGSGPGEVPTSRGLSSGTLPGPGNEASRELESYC
The data set can be described thus: In vitro cellular cAMP assay for GIP receptor efficacy (HEK-293 cell line over-expressing receptor). Format: cell-based.

Data set [3] concerns the target T1, human GIP receptor (hGIPR). The data set can be described thus: Binding assay, displacement of [125I]GIP from HEK-293 membranes over-expressing GIPR (SPA). As to the method:
(§1) (1) Preparation of Membranes from HEK-293 Cells Over-Expressing GIPR or GLP-1R
(§2) HEK-293 cells recombinantly over-expressing GIPR or GLP-1R were grown to 50% confluency, washed with warm 1×PBS (Gibco) and detached in HEPES/EDTA-buffer (100 mM HEPES pH 7.5, 5 mM EDTA). Cells were harvested by centrifugation at 4° C. and 3000×g and the pellets were stored at −80° C. until further processing.
(§3) After thawing on ice, pellets were resuspended in HEPES/EDTA-buffer and homogenized on ice for 1 min using Ultra-Turray T25. After subsequent sonification the cell debris was removed by centrifugation at 1000×g and 4° C. Supernatants were then ultra-centrifuged at 100000×g and 4° C. under vacuum for 30 min. Pellets were resuspended in HEPES/EDTA/NaCl-buffer (20 mM HEPES, 1 mM EDTA, 150 mM NaCl; add 1 Complete Mini Protease inhibitor cocktail to 10 ml buffer) and protein content was determined via BCA-Protein assay.
(§4) (2) Measurement of Binding Activity of Test Compounds to Human GIPR or GLP-1R
Background: In a radioligand displacement assay an active substance lowers the binding of a labelled ligand.

Data set [4] addresses human GLP-1 receptor (hGLP-1R) (Homo sapiens, UniProt P43220). As to the kind of experiment: Binding assay, displacement of [125I]GLP-1 from HEK-293 membranes over-expressing GLP-1R (SPA). As to the method:
as §1, §2, §3, §4

One may read the EC50 as the concentration giving half of the maximal effect. In general, IC50 refers to the concentration that gives 50% inhibition.

For the molecule `CC[C@H](C)[C@H](NC(=O)[C@H](CCC(=O)O)NC(=O)[C@H](CCC(=O)O)NC(=O)[C@H](CCCCNC(=O)COCCOCCNC(=O)COCCOCCNC(=O)CC[C@H](NC(=O)CCCCCCCCCCCCCCCCC(=O)O)C(=O)O)NC(=O)C(C)(C)NC(=O)[C@@H](NC(=O)[C@H](CO)NC(=O)[C@H](CC(C)C)NC(=O)[C@H](CC(=O)O)NC(=O)[C@H](CO)NC(=O)[C@@H](NC(=O)[C@@](C)(CC)NC(=O)[C@@H](NC(=O)CNC(=O)[C@H](CCC(=O)O)NC(=O)C(C)(C)NC(=O)[C@@H](N)Cc1ccc(O)cc1)[C@@H](C)O)[C@@H](C)CC)[C@@H](C)CC)C(=O)N[C@@H](Cc1c[nH]cn1)C(=O)N[C@@H](CCC(N)=O)C(=O)NC(C)(C)C(=O)N[C@@H](CCC(=O)O)C(=O)N[C@@H](Cc1ccccc1)C(=O)N[C@H](C(=O)N[C@@H](CCC(=O)O)C(=O)N[C@@H](Cc1c[nH]c2ccccc12)C(=O)N[C@@H](CC(C)C)C(=O)N[C@@H](CC(C)C)C(=O)N[C@@H](C)C(=O)N[C@@H](CCC(N)=O)C(=O)N[C@@H](CCCCN)C(=O)N1CCC[C@H]1C(=O)N[C@@H](CO)C(=O)N[C@@H](CO)C(=O)NC(C)(C)C(=O)N[C@@H](CCCCN)C(=O)N1CCC[C@H]1C(=O)N1CCC[C@H]1C(=O)N1CCC[C@H]1C(=O)N[C@@H](CCCCN)C(N)=O)[C@@H](C)CC` [SEQ ID NO: 20, H2N-Y-Aib-E-G-T-Iva-I-S-D-L-S-I-Aib-K[{AEEA}2-gGlu-C18OH]-E-E-I-H-Q-Aib-E-F-I-E-W-L-L-A-Q-K-P-S-S-Aib-K-P-P-P-K-NH2], in data set [1], the solubility is greater than 8800 µg/mL. Besides, in data set [2], the EC50 was found to be 0.0431 nM. In addition, the results for the IC50 in data set [3] and in data set [4] were 0.3 nM and 304 nM, respectively.

These data come from patent US20240360194A1, “New Peptides as Potent and Selective GIP Receptor Agonists” (Sanofi, priority 2021, published 2024).
